The list shows a part of the results, in another mix than the full data. Calls of active or inactive are those of the source. Rule as the data show it: active = inhibition above about 27%; inactive = the rest.
target: Galanin receptor type 2 (Homo sapiens) (UniProt O43603); assay: blockers of human galanin receptor 2 – cell-based, primary screen (AID 828); details: GALR2-expressing cells, antagonist mode; at 4 µM; active compounds read high;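 also: cells stimulated with galanin 1-16 at roughly its EC80; 0% = agonist challenge control and 100% = basal control without agonist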

Amino acid sequences for entries named in this document (tags omitted). A change or cut given only in a name is not applied to a line headed by its entry.
UniProt O43603: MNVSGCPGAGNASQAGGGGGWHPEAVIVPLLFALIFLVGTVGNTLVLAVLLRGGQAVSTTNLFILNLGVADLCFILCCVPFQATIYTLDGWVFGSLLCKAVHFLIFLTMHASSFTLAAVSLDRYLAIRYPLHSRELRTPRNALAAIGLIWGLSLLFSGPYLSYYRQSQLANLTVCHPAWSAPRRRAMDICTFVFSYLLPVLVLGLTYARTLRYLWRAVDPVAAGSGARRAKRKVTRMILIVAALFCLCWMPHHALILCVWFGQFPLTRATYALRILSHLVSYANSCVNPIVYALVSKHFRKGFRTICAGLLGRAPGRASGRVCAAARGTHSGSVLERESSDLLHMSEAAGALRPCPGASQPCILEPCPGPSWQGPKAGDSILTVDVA

**Q.** How did the inhibition turn out when `O=P1(Nc2nc3ccc(Cl)cc3s2)COc2ccccc2O1` (stereo not drawn) was run?
**A.** The inhibition was inactive: -6.68%.

**Q.** `CCC(=O)N1C2C3N(C(=O)CC)C1C1N(C(=O)CC)C(C(N1C(=O)CC)N3C(=O)CC)N2C(=O)CC` was tested. Which inhibition did it give?
**A.** Its inhibition is inactive: -1.61%.

**Q.** `CC(=O)NC(SC(=S)N(CC(C)C)CC(C)C)C(Cl)(Cl)Cl` (stereo not drawn) was tested. Which inhibition did it give?
**A.** The inhibition was inactive: -0.5%.

**Q.** `COC(=O)c1cc2c(s1)N=C(c1ccccc1)N(C)P2(=O)N1CCOCC1` (stereo not drawn) was tested. Which inhibition did it give?
**A.** The inhibition was inactive: 9.57%.

**Q.** For `CCOC(=O)NC(Sc1ccccc1)C(Cl)(Cl)Cl` (stereo not drawn), which inhibition is on record?
**A.** Its inhibition is inactive: -6.41%.

**Q.** `CC(=O)NC(SC(=S)N(C)C)C(Cl)(Cl)Cl` (stereo not drawn) was tested. Which inhibition did it give?
**A.** Its inhibition is inactive: 18.7%.

**Q.** With `O=C(OC1CN2CCC1CC2)c1cccc(Cl)c1` (stereo not drawn) as the compound, how does the inhibition read?
**A.** Its inhibition is inactive: -2.09%.

**Q.** Which inhibition does the source give for `C(Cc1nn[nH]n1)Cc1nn[nH]n1` here?
**A.** The inhibition was inactive: 0.79%.

**Q.** `CC(C)C(=O)NC(Sc1ccccc1)C(Cl)(Cl)Cl` (stereo not drawn) was tested. Which inhibition did it give?
**A.** Its inhibition is inactive: -1.47%.

**Q.** How did the inhibition turn out when `O=P(Nc1nccs1)(c1ccccc1)c1ccccc1` was run?
**A.** The inhibition was inactive: 5.04%.

**Q.** With `c1nnnn1CCn1cnnn1` as the compound, how does the inhibition read?
**A.** The inhibition was inactive: 10.2%.

**Q.** How did the inhibition turn out when `CC1CCN(C(=O)Oc2c(Cl)cc(Cl)c3cccnc23)CC1` was run?
**A.** The inhibition was inactive: -6.55%.

**Q.** With `CN(C)C(=O)OCCc1n(C)cc[n+]1C` as the compound, how does the inhibition read?
**A.** The inhibition was inactive: -0.22%.

**Q.** How did the inhibition turn out when `CCc1nc2c(n1)c1c(non1O)c1c2no[n+]1[O-]` was run?
**A.** The inhibition was active: 35%.

**Q.** For `O=[N+]([O-])c1cccc2n[nH]nc12`, which inhibition is on record?
**A.** The inhibition was inactive: -1.14%.

**Q.** `CC(=O)N1C2C3N(C(C)=O)C1C1N(C(C)=O)C(C(N1C(C)=O)N3C(C)=O)N2C(C)=O` was tested. Which inhibition did it give?
**A.** The inhibition was inactive: -5.26%.

**Q.** How did the inhibition turn out when `CCOP(=O)(Nc1ccccc1)OCC` was run?
**A.** Its inhibition is inactive: 4.41%.

**Q.** How did the inhibition turn out when `Cc1cc(SC(NC(=O)c2ccc(F)cc2)C(Cl)(Cl)Cl)ncn1` (stereo not drawn) was run?
**A.** Its inhibition is inactive: -10.3%.

**Q.** Which inhibition does the source give for `Cc1c2non([O-])c-2c(C)[n+](=O)[n+]1[O-]` here?
**A.** The inhibition was inactive: 4.41%.

**Q.** For `O=C(NC(Sc1ccncn1)C(Cl)(Cl)Cl)c1ccccc1` (stereo not drawn), which inhibition is on record?
**A.** Its inhibition is inactive: 14.6%.

**Q.** Which inhibition does the source give for `Oc1ccccc1CNc1ccccn1` here?
**A.** The inhibition was inactive: -2.26%.

**Q.** For `CC(C)CC(=O)NC(Sc1ccc(Cl)cc1)C(Cl)(Cl)Cl` (stereo not drawn), which inhibition is on record?
**A.** The inhibition was inactive: 3.9%.

**Q.** `CN1CCCC(OC(=O)C(c2ccccc2)c2ccccc2)C1` (stereo not drawn) was tested. Which inhibition did it give?
**A.** Its inhibition is inactive: 2.9%.

**Q.** For `Cc1c2c(nc3ccccc13)SC(C(Cl)Cl)C2` (stereo not drawn), which inhibition is on record?
**A.** Its inhibition is inactive: -2.89%.

**Q.** For `O=C(OC1CN2CCC1CC2)C12CC3CC(CC(C3)C1)C2` (stereo not drawn), which inhibition is on record?
**A.** The inhibition was inactive: -16.9%.

**Q.** For `ClCCSc1nnc(-c2cccnc2)o1`, which inhibition is on record?
**A.** The inhibition was inactive: 4.36%.

**Q.** Which inhibition does the source give for `O=[N+]([O-])c1cc([N+](=O)[O-])c(-c2ccn[nH]2)s1` here?
**A.** The inhibition was inactive: -3.31%.

**Q.** With `CCN(CC)C(=S)SC(NC=O)C(Cl)(Cl)Cl` (stereo not drawn) as the compound, how does the inhibition read?
**A.** The inhibition was inactive: -7.88%.

**Q.** With `Cc1ccc2nc3c(c(C)c2c1)CC(C(Cl)Cl)S3` (stereo not drawn) as the compound, how does the inhibition read?
**A.** Its inhibition is inactive: 7.61%.

**Q.** How did the inhibition turn out when `Cc1cc(SC(NC(=O)c2ccccc2)C(Cl)(Cl)Cl)nc(C(C)C)n1` (stereo not drawn) was run?
**A.** Its inhibition is inactive: 5.84%.

**Q.** For `CCC(C)N(CC(C)C)C(=S)SC(NC(C)=O)C(Cl)(Cl)Cl` (stereo not drawn), which inhibition is on record?
**A.** The inhibition was inactive: -0.08%.

**Q.** How did the inhibition turn out when `COP1(=S)c2c(C)nn(CCC#N)c2N=C(c2ccc(F)cc2)N1C` (stereo not drawn) was run?
**A.** Its inhibition is inactive: -0.84%.

**Q.** With `O=C(COc1ccccc1)OC1CN2CCC1CC2` (stereo not drawn) as the compound, how does the inhibition read?
**A.** The inhibition was inactive: -14.5%.

**Q.** Which inhibition does the source give for `CC1(CBr)Cn2c(nc3ccccc3c2=O)S1` (stereo not drawn) here?
**A.** The inhibition was inactive: -7.72%.

**Q.** `O=P1(Nc2ccccn2)COc2ccccc2OC1` was tested. Which inhibition did it give?
**A.** The inhibition was inactive: 2.87%.

**Q.** Which inhibition does the source give for `Clc1n[nH]nc1-c1nn[nH][15n]1` here?
**A.** Its inhibition is inactive: -2.9%.

**Q.** With `O=P1(Nc2ncccn2)COc2ccccc2OC1` as the compound, how does the inhibition read?
**A.** The inhibition was inactive: 1.29%.

**Q.** How did the inhibition turn out when `O=P1(Nc2ccc(Br)cn2)COc2ccccc2OC1` was run?
**A.** Its inhibition is inactive: 5.52%.

**Q.** How did the inhibition turn out when `Cc1ccc(OCC(=O)OC2CN3CCC2CC3)cc1` (stereo not drawn) was run?
**A.** Its inhibition is inactive: 10.3%.

**Q.** Which inhibition does the source give for `Cc1nn(-c2ccccc2)c2c1P(=O)(N1CCOCC1)N(C)C(c1ccccc1)=N2` (stereo not drawn) here?
**A.** Its inhibition is inactive: -9.72%.

**Q.** With `CCOP1(=S)c2c(C)nn(CCC#N)c2N=C(c2ccc(F)cc2)N1C` (stereo not drawn) as the compound, how does the inhibition read?
**A.** Its inhibition is inactive: 5.98%.

**Q.** How did the inhibition turn out when `O=[N+]([O-])c1ccc2c(c1)nnn2O` was run?
**A.** Its inhibition is inactive: 2.32%.

**Q.** How did the inhibition turn out when `O=P(Nc1nccs1)(c1ccccc1)c1nc2ccccc2s1` (stereo not drawn) was run?
**A.** Its inhibition is active: 34.7%.

**Q.** With `CCOP1(=S)c2c(C)nn(CCC#N)c2N=C(c2ccccc2F)N1C` (stereo not drawn) as the compound, how does the inhibition read?
**A.** The inhibition was inactive: 5.35%.

**Q.** Which inhibition does the source give for `Cc1ccc(NCCc2c([N+](=O)[O-])cc([N+](=O)[O-])cc2[N+](=O)[O-])cc1` here?
**A.** Its inhibition is inactive: -2.48%.

**Q.** Which inhibition does the source give for `CCOP(=O)(Nc1cccc2ccccc12)OCC` here?
**A.** The inhibition was inactive: 7.89%.

**Q.** How did the inhibition turn out when `COc1cc(C2NCCC3(OCCO3)C2(C)C)cc(OC)c1OC` (stereo not drawn) was run?
**A.** The inhibition was inactive: 3.14%.

**Q.** Which inhibition does the source give for `Cc1cccc(OCC(=O)OC2CN3CCC2CC3)c1` (stereo not drawn) here?
**A.** Its inhibition is inactive: -19.3%.

From PubChem BioAssay AID828 (The Scripps Research Institute Molecular Screening Center, 2007)
